Experimental data: article PMC12711630 (Cell Reports. Physical Science, 2025)

By UniProt entry, the sequences of proteins in these tests, tags left out. Residues count along the entry.
UniProt P36544, 23-502 limits assumed: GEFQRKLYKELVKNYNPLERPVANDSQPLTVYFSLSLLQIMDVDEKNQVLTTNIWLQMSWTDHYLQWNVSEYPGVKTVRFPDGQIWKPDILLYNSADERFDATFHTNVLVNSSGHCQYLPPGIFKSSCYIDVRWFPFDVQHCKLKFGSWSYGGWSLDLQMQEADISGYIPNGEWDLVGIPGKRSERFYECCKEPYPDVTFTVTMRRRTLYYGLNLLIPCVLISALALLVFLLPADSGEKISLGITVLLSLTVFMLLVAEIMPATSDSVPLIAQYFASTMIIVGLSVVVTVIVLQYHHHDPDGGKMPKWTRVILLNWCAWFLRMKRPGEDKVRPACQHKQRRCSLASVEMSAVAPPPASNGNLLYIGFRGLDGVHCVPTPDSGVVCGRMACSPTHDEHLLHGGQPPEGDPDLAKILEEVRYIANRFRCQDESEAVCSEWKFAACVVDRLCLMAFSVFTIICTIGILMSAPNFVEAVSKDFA

Target: human α7 nAChR (Homo sapiens, UniProt P36544)
Assay: [125I]α-Bgtx radioligand binding (saturation and competition), membranes of transfected SH-SY5Y cells
Conditions: ratio relative to α4β2

SMILES	Ki ratio α7/α4β2
c1ccc2cc3c(cc2c1)C1CNCC3C1 [C2 varenicline 4]	93
c1ccc2nc3c(nc2c1)C1CNCC3C1 [Isovarenicline 5]	23
